Earlier results, collected in US6509371B1, “Compositions containing Bergamottin for increasing the oral bioavailability of pharmaceutical agents” (Warner-Lambert Company, priority 1997, dated 2003).
Only a part of the results on these compounds is given; other tests are left out.

Chains of the proteins cited; added tags and fusions are not shown.
UniProt P08684, whole entry: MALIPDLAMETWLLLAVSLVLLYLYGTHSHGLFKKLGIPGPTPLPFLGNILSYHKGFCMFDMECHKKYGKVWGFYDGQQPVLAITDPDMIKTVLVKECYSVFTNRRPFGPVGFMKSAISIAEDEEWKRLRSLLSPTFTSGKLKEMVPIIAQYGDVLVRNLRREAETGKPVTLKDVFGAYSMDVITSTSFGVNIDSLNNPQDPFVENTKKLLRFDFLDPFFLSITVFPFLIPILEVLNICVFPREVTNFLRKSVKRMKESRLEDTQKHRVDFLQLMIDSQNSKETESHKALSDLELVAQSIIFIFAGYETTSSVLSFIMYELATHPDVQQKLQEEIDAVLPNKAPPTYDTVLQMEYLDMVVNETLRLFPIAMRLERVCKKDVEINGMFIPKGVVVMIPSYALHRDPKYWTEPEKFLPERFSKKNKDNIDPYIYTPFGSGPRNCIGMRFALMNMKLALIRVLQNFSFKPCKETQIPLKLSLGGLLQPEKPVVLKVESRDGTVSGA

Columns and labels:
P450 3A4 = P450 3A4 (Homo sapiens, UniProt P08684); conditions: in vivo; cited from earlier work
[1] = cited from earlier work

CCC(=O)N(c1ccccc1)C1(COC)CCN(CCn2nnn(CC)c2=O)CC1
Fraction Metabolized (P450 3A4): >90% | Oral Bioavailability [1]: Very Low
